The entries are a selection whose mix differs from that of the whole data set. The source made the active and inactive calls.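 The calls were made as follows: active = activation above the mean of all tested compounds plus 3 SD (cut at about 9.5% in these data); inactive = the rest.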

A short description of this assay: compounds raising TTR promoter-driven luciferase – cell-based, luminescence, SH-SY5Y, TTR promoter Gaussia luciferase, primary screen (AID 1117267).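 Also: cells exposed to compounds for one day before reading; 0% = median of all test compound wells on the plate.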 As to conditions: at 16.7 µM, hits give high values, 100% = recombinant luciferase protein wells.
Turning to `CC(C)c1ccc(OP(=O)(Nc2ccccn2)Oc2ccccc2F)cc1` (centres undefined), the activation was inactive: -0.3%.

`ClCCSc1nnc(-c2cccnc2)o1`: the activation is inactive: -0.58%.

With `O=C(OC1CN2CCC1CC2)c1cccc2[nH]cnc12` (centres undefined), the activation is inactive: 7.2%.

With `O=[As](O)(c1ccc(O)cc1)c1ccccc1O`, the activation was inactive: 0.41%.

With `Cc1ccc2nc3c(c(C)c2c1)CC(C(Cl)Cl)S3` (centres undefined), the activation is inactive: -0.01%.

As for `COc1ccc(N/C(=N/P(=O)(N2CCOCC2)N2CCOCC2)N2CCOCC2)cc1`, the activation is inactive: -1.1%.

Regarding `O=P1(N(CCCl)CCCl)OCCCN1CCCl` (centres undefined), the activation was inactive: 1.46%.

Consider `O=P1(N(CCCl)CCCl)Nc2ccccc2N1`, for which the activation was inactive: -1.74%.

Regarding `CCOC(=O)c1ccc(NC(=O)C(C)(CCl)SC)cc1` (centres undefined), the activation is inactive: 2.01%.

As to `NS(=O)(=O)c1cccc(NC(=O)COC(=O)C(O)(c2ccccc2)c2ccccc2)c1`, the activation was inactive: 1.28%.

Turning to `O=C(/C=C/c1ccccc1)OC1CN2CCC1CC2` (centres undefined), the activation is inactive: 0.14%.

Regarding `CN(C(=O)Cc1ccc(Cl)c(Cl)c1)C1CCCC[C@@H]1N1CCCC1` (some centres undefined), the activation was inactive: 0.01%.

In the case of `CC(C)/C=N\N=C(\N)N[N+](=O)[O-]`, the activation is inactive: 0.13%.

Regarding `CCOP(=O)(Nc1ccc(C)cn1)OCC`, the activation was inactive: 0.02%.

On to `CCOP(=O)(NC(=NC(C)c1ccccc1)NC(C)c1ccccc1)OCC` (centres undefined), for which the activation is inactive: -0.89%.

For `O=P1(Nc2ccccn2)COc2ccccc2OC1`, the activation is inactive: 2.49%.

`O=[As](O)(O)c1cccnc1`: the activation is inactive: -0.08%.

Take `O=C(OC1CN2CCC1CC2)c1ccc(Cl)cc1` (centres undefined): the activation was inactive: 0.83%.

Take `Cc1cccc(OCC(=O)OC2CN3CCC2CC3)c1` (centres undefined): the activation is inactive: 6.01%.

For `CN(C)C(=O)c1cc([N+](=O)[O-])cc2c1-c1c(cc([N+](=O)[O-])cc1[N+](=O)[O-])C2=O`, the activation is inactive: -7.47%.

In the case of `O=[N+]([O-])c1ccc2c(c1)nnn2O`, the activation was inactive: -1.84%.

Turning to `O=P(Nc1nccs1)(Oc1ccccc1)Oc1ccccc1`, the activation was inactive: 0.4%.

On to `O=C(O)COc1ccc([As](=O)(O)O)cc1[N+](=O)[O-]`, for which the activation was inactive: 1.5%.

In the case of `O=c1c2cc([N+](=O)[O-])ccc2[nH]c2c([N+](=O)[O-])cc([N+](=O)[O-])cc12`, the activation was inactive: -6.56%.

Regarding `O=P1(N(CCCl)CCCl)OCCC2CCCCN21` (centres undefined), the activation is inactive: -1.13%.

For the compound `N#C/C(=C\c1ccc(N(CCBr)CCBr)cc1)C(N)=O`, the activation was inactive: -0.76%.

With `CCc1cc(O)c([N+](=O)[O-])c(C)c1[N+](=O)[O-]`, the activation was inactive: 0.25%.

Turning to `CC(=O)NC(SC(=S)N(C)C)C(Cl)(Cl)Cl` (centres undefined), the activation is inactive: -1.45%.

Turning to `C[C@H]1OP(=O)(Oc2ccccc2)[C@H](O)[C@H](O)[C@H]1N=[N+]=[N-]` (some centres undefined), the activation is inactive: 1.53%.

Regarding `O=[N+]([O-])c1cccc(NC2=NCC(CBr)S2)c1` (centres undefined), the activation is inactive: -1.83%.

With `O=P1(N(CCCl)CCCl)OCCCS1` (centres undefined), the activation was inactive: 0.25%.

Turning to `CN(C)C(=O)OCCc1n(C)cc[n+]1C`, the activation is inactive: 1.1%.

Take `CC(C)c1nc(Nc2ccccc2)n(P(=O)(N(C)C)N(C)C)n1`: the activation is inactive: -0.69%.

Consider `O=[N+]([O-])c1cccc2n[nH]nc12`, for which the activation was inactive: 0.42%.

As for `Nc1cc(N)c2nonc2c1[N+](=O)[O-]`, the activation is inactive: -0.16%.

Consider `NC(=O)c1cc([N+](=O)[O-])cc([N+](=O)[O-])c1N`, for which the activation was inactive: 0.31%.

With `Cc1ccc(OP(=O)(Nc2nccs2)Oc2ccc(C)cc2)cc1`, the activation is active: 25.2%.

With `CN(C(=O)Cc1ccccc1)C1CC[C@@]2(CCCO2)C[C@@H]1N1CCCC1` (some centres undefined), the activation is inactive: 1.57%.

Turning to `O=C(O)c1ccccc1[As](=O)(O)O`, the activation was inactive: 1.39%.

`CN(C)P(=O)(N(C)C)n1c(Nc2ccccc2)nnc1-c1ccccc1`: the activation was inactive: 1.52%.

For the compound `O=P(Nc1nc2ccc(Cl)cc2s1)(c1ccccc1)c1ccccc1`, the activation was inactive: -4.97%.

In the case of `Cc1ccc(NP(=O)(Oc2ccccc2F)Oc2ccccc2F)nc1`, the activation is inactive: -0.13%.

As for `CCOP(=O)(Nc1ccccc1)OCC`, the activation was active: 13.2%.

For `CCn1c(=O)n(C2CCN(CC3CCCCCCC3)C[C@H]2CO)c2ccccc21` (some centres undefined), the activation was inactive: -0.01%.
